Assay results from patent US11185532B2, “Methods of treating pruritus” (Clexio Biosciences Ltd., priority 2019, dated 2021).

Target: T1, Adrenergic 1A (Homo sapiens, UniProt P35348)
T1 sequence (P35348 1-466): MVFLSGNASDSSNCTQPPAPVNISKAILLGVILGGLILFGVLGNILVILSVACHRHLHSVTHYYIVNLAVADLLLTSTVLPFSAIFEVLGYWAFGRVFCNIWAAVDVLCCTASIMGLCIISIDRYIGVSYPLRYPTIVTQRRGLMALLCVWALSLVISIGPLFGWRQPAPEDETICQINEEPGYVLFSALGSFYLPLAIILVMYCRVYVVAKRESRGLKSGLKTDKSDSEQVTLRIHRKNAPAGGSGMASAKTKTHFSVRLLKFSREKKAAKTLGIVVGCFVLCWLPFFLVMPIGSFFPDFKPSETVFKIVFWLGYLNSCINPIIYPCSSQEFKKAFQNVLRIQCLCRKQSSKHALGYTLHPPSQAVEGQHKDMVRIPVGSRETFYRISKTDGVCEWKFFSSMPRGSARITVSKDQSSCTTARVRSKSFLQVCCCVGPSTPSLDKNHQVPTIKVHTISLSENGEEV
Assay: biochemical

Which inhibition at 10 µM does the source give for Clc1cccc(Cl)c1N=C1NCCN1 [clonidine] here?
The inhibition at 10 µM was 91%.
